The chains behind the UniProt entries cited, without tags or fusion partners. Where a name states a change or a piece, a line headed by the entry shows the natural chain unless it says otherwise.
UniProt O09061: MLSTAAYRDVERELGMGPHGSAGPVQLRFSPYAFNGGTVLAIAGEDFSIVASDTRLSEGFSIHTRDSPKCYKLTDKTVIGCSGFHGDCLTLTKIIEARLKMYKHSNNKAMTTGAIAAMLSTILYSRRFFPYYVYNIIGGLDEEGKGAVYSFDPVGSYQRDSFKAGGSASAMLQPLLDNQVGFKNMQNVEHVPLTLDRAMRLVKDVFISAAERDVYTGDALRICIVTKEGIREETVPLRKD
UniProt O55234: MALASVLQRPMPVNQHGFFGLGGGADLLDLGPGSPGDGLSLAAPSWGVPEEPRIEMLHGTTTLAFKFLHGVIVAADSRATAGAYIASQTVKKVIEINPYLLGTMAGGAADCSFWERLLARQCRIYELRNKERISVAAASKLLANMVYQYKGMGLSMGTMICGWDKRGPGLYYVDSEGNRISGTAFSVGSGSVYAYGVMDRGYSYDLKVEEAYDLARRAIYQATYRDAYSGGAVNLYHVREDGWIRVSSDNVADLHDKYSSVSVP
UniProt P70195: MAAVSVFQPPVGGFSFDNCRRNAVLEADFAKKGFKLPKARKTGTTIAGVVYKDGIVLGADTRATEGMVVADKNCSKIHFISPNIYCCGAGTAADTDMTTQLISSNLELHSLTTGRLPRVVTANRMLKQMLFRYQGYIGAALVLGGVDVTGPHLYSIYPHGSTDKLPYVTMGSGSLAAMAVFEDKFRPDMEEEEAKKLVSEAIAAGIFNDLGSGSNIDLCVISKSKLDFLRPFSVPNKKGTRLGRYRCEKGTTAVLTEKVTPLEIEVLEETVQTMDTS
UniProt Q60692: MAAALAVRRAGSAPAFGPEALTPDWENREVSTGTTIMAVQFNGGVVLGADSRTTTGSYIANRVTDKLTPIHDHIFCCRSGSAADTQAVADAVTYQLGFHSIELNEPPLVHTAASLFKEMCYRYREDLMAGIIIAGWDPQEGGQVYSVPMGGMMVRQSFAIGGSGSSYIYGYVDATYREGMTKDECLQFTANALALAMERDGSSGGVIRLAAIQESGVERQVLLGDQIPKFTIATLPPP

According to article PMC2892826 (Cell cycle (Georgetown, Tex.), 2009):

Molecular target: hepatic CT-L, T-L, and PGPH activities (Mus musculus, UniProt O09061+O55234+P70195+Q60692)
Assay type: in vivo, nude mice
Details: livers of A549 tumor-bearing mice, 1 mpk i.p., 2 h after last injection

## CC(C)C[C@H](NC(=O)[C@H](Cc1ccccc1)NC(=O)c1cnccn1)B(O)O [Bortezomib]
  effect on liver proteasome activities (CT-L, T-L, PGPH): significantly inhibited
